Source: patent US20190046536A1, “Combination Therapy” (Eli Lilly and Company, priority 2016, published 2019)

Tested on: deposited Aβ
Experiment: Ex vivo target engagement, immunohistochemistry on fixed PDAPP brain sections
Format: binding
Conditions: cryostat coronal sections from aged PDAPP mice (25-month old); Antibody I or II at 20 μg/mL; biotinylated 3D6 as positive control
Text: Secondary HRP reagents specific for human IgG are employed and the deposited plaques are visualized with DAB-Plus (DAKO). Biotinylated murine 3D6 antibody followed by Step-HRP secondary is used as a positive control.

Molecule | labeling of deposited Aβ in PDAPP hippocampus
Antibody I: anti-N3pGlu Abeta antibody with LC of SEQ ID NO: 12 and HC of SEQ ID NO: 11 (antibody) heavy: QVQLVQSGAEVKKPGSSVKVSCKASGYTFTDYYINWVRQAPGQGLEWMGWINPGSGNTKYNEKFKGRVTITADESTSTAYMELSSLRSEDTAVYYCTREGETVYWGQGTLVTVSSASTKGPSVFPLAPSSKSTSGGTAALGCLVKDYFPEPVTVSWNSGALTSGVHTFPAVLQSSGLYSLSSVVTVPSSSLGTQTYICNVNHKPSNTKVDKKV[letters of human IgG1 Fc left out] light: DVVMTQSPLSLPVTLGQPASISCKSSQSLLYSRGKTYLNWFQQRPGQSPRRLIYDVSKLDSGVPDRFSGSGSGTDFTLKISRVEAEDVGVYYCVQGTHYPFTFGQGTKLEIKRTVAAPSVFIFPPSDEQLKSGTASVVCLLNNFYPREAKVQWKVDNALQSGNSQESVTEQDSKDSTYSLSSTLTLSKADYEKHKVYACEVTHQGLSSPVTKSFNRGEC | labeled a subset of deposits
Antibody II: anti-N3pGlu Abeta antibody with LC of SEQ ID NO: 13 and HC of SEQ ID NO: 11 (antibody) heavy: QVQLVQSGAEVKKPGSSVKVSCKASGYTFTDYYINWVRQAPGQGLEWMGWINPGSGNTKYNEKFKGRVTITADESTSTAYMELSSLRSEDTAVYYCTREGETVYWGQGTLVTVSSASTKGPSVFPLAPSSKSTSGGTAALGCLVKDYFPEPVTVSWNSGALTSGVHTFPAVLQSSGLYSLSSVVTVPSSSLGTQTYICNVNHKPSNTKVDKKV[letters of human IgG1 Fc left out] light: DIQMTQSPSTLSASVGDRVTITCKSSQSLLYSRGKTYLNWLQQKPGKAPKLLIYAVSKLDSGVPSRFSGSGSGTEFTLTISSLQPDDFATYYCVQGTHYPFTFGQGTKLEIKRTVAAPSVFIFPPSDEQLKSGTASVVCLLNNFYPREAKVQWKVDNALQSGNSQESVTEQDSKDSTYSLSSTLTLSKADYEKHKVYACEVTHQGLSSPVTKSFNRGEC | labeled a subset of deposits
